# Assay results from article PMC7072329, “Discovery of Kynurenines Containing Oligopeptides as Potent Opioid Receptor Agonists” (Biomolecules, 2020).
# Target: δ-opioid receptor (rat (endogenous in rat brain)) (UniProt P33533)
# Assay: radioligand binding; displacement of [^3H]Ile^5,6Delt II from rat brain membrane homogenate by unlabelled ligand (10^-10 to 10^-5 M); 50 mM Tris-HCl pH 7.4, 35 °C, 45 min; non-specific binding with 10 μM naloxone; IC50 converted into Ki by Cheng-Prusoff
substance,measurement,value
"Ile^5,6-deltorphine II (peptide)",Ki,8.85 nM
